Assay results published in patent publication US9238626B2 (priority 2012, dated 2016).

Protein sequences, listed by entry. Tags and fused reporters are not part of them. Residues count along the entry.
UniProt P22303, 32-614: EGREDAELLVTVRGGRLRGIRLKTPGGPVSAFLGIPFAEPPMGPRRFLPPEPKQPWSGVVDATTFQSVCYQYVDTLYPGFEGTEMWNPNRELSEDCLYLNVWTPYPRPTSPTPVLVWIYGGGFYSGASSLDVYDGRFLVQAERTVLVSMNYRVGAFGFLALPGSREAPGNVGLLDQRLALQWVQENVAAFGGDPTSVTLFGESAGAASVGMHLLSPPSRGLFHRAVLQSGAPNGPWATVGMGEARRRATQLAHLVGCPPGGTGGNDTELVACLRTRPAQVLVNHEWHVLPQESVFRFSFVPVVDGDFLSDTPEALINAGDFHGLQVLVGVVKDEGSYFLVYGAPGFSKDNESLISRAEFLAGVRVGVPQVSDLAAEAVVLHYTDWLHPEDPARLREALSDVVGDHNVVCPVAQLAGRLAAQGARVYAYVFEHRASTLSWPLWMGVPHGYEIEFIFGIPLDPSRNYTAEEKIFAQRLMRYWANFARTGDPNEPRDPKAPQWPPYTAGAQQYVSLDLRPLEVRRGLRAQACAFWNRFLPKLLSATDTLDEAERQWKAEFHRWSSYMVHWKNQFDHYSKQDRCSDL
UniProt P06276, 29-602: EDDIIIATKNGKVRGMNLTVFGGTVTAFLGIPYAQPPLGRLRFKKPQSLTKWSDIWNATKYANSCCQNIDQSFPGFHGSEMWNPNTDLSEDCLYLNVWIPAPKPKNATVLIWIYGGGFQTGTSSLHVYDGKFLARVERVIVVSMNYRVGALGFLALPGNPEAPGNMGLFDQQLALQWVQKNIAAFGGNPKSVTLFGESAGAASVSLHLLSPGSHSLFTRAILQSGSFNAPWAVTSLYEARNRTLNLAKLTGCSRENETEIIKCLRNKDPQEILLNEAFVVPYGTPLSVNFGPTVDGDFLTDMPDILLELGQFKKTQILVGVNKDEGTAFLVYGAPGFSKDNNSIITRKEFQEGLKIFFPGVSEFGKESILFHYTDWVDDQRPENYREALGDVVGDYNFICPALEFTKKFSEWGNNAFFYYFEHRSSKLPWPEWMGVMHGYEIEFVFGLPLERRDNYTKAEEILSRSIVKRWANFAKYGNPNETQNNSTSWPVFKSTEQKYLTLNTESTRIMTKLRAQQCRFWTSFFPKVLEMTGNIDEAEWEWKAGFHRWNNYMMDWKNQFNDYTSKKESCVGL

Tests used:
[1] = target: recombinant human AChE (hAChE) (Homo sapiens (Human), UniProt P22303); details: read-out: IC50 hAChE
Excerpt: The results were plotted by placing the percentage of inhibition in function of the decimal log of the final inhibitor concentration.

[2] = target: human serum BChE (Homo sapiens (Human), UniProt P06276); assay: BChE inhibition assay (Ellman); type: biochemical; details: read-out: IC50 hBChE
Protocol: BChE inhibitory activity determinations were carried out similarly by the method of Ellman et al., using 0.02 unit/mL of human serum BChE and 300 μM butyrylthiocholine, instead of AChE and acetylthiocholine, in a final volume of 300 μL.
Results are expressed as mean±S.E.M. of at least 4 experiments performed in duplicate. DTNB, acetylthiocholine, butyrylthiocholine, and enzymes were purchased from Sigma.

huprine Y [(±)-Huprine Y•HCl, reference compound]
IC50 [1]: 0.69 ± 0.03 nM
IC50 [2]: 181 ± 15 nM
